IC50 data for five molecules are collected here from US11123340B2, “Small-molecule UT-A-selective urea transport inhibitors” (The Regents of the University of California, priority 2014, dated 2021).

By UniProt entry, the sequences of proteins in these tests, tags left out.
UniProt Q62668, whole entry: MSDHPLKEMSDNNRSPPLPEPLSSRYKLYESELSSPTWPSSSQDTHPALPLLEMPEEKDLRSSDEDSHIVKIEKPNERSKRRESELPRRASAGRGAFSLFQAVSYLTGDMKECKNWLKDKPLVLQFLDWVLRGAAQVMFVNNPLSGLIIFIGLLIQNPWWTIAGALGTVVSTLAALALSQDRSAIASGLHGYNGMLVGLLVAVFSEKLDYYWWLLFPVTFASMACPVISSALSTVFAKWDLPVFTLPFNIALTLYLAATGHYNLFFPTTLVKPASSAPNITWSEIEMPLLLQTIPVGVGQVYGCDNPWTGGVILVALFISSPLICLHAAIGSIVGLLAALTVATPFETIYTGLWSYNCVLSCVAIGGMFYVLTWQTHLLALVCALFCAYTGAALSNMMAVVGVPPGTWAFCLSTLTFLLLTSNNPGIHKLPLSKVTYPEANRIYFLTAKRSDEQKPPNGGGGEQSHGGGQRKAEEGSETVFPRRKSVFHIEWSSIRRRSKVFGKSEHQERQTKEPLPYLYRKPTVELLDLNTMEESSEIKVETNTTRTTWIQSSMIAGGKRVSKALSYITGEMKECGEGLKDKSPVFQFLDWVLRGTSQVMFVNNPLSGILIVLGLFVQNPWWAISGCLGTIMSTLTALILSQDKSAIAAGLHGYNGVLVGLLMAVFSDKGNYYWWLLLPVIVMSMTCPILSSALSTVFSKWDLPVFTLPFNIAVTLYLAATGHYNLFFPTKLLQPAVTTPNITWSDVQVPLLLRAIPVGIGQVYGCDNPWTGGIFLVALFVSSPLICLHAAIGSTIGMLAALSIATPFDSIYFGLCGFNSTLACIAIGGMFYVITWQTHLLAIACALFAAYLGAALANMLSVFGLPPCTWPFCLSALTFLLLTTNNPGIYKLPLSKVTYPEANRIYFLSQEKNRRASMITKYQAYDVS
UniProt P97689, whole entry: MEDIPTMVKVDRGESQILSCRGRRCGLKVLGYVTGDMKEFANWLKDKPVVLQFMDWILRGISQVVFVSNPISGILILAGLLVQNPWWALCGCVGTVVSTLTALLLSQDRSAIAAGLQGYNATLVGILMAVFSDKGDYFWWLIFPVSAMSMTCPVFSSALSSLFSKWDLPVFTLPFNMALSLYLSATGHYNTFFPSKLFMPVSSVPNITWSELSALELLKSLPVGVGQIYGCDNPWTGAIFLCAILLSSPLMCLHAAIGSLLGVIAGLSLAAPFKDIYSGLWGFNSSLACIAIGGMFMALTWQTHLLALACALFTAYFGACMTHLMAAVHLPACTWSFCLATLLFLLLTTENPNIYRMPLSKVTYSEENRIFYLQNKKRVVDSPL

In one test the target is rat UT-A1 (Rattus norvegicus, UniProt Q62668). Kind of test: UT-A1 inhibition, fluorescence plate reader assay in MDCK cells expressing UT-A1, AQP1 and YFP-H148Q/V163S. Conditions: read-out: IC50 (μM) UT-A1. The method, then:
Primary screening was done using a collection of 50,000 chemically diverse, drug-like compounds from ChemDiv (San Diego, Calif.). For analysis of structure-activity relationships, >300 commercially available analogs (ChemDiv and Asinex, Winston-Salem, N.C.) were tested. Cells were plated on black 96-well Costar microplates with clear plastic bottoms (Corning, Corning, N.Y.) at 15,000 cells/well and cultured for 24 h at 37° C. before assay. Microplates containing cultured cells were washed twice with PBS and 150 μL of test compound (25 μM final) in PBS was added. Eighty wells contained test compounds, and the first and last columns of each plate contained negative (dimethyl sulfoxide, DMSO) and positive (0.35 mM phloretin) controls. The assays were done on a plate reader (Tecan Trading AG, Switzerland) equipped with a custom YFP filter set. Each assay consisted of a continuous 15-s read (5 Hz) in which 50 μL of 3.2 M urea in PBS was injected at 1 s (at 130 μL/s) to give a 800 mM final urea gradient.
MDCK cells stably expressing rat UT-A1 (see, e.g., Frohlich et al. (2006) Am J Physiol Cell Physiol. 291, C600-D606), YFP-H148Q/V163 S (see, e.g., Galietta, et al. (2001) FEBS Lett. 499, 220-224) and human AQP1, as described previously (see, e.g., Esteva-Font et al. (2013) Chem Biol. 20, 1235-1244), were grown in Dulbecco's modified Eagle medium (DMEM) containing 10% fetal bovine serum (FBS), penicillin G (100 U/mL), streptomycin (100 μg/mL), zeocin (500 μg/mL), geneticin (600 μg/mL) and Hygromycin (500 μg/mL) at 37° C., 5% CO2. A Cell Clone with bright YFP fluorescence and relatively low AQP1 expression was used for the screen to maximize dynamic range.
In order to identify UT-A inhibitors suitable for testing in rats, a collection of 50,000 synthetic small molecules was screened. As diagrammed in FIG. 1A (top), the fluorescence cell-based screen utilized MDCK cells stably rat expressing UT-A1, water channel AQP1 and the cytoplasmic chloride-sensing fluorescent protein YFP-H148Q/V163S. As described and validated previously (see, e.g., Esteva-Font et al. (2013) Chem Biol. 20, 1235-1244), extracellular addition of urea results in osmotic water efflux and cell shrinking, which increases intracellular chloride concentration and reduces YFP fluorescence. Urea entry results in increasing YFP fluorescence as cells re-swell. Inhibitors of UT-A1 urea transport produce a lesser reduction in fluorescence and slowed recovery.

The next test deals with rat UT-B (Rattus norvegicus, UniProt P97689). Kind of test: UT-B inhibition, erythrocyte lysis assay. The settings on record: read-out: IC50 (μM) UT-B; rat erythrocytes. The method, then: As described (see, e.g., Levin et al. (2007) FASEB J. 21, 551-563), whole rat blood was diluted to a hematocrit of ˜1.5% in PBS containing 1.25 M acetamide and 5 mM glucose. Erythrocyte suspensions (100 μL) were added to 96-well round-bottom microplates and test compounds (1 μL) were added. After 15 min incubation, 20 μL of the erythrocyte suspension was added rapidly to each well containing 180 μL of PBS. Following vigorous mixing, erythrocyte lysis was quantified by absorbance at 710 nm. Non-lysed controls (isosmolar buffer) and lysed controls (0.7 mM phloretin) were added in each plate as negative and positive controls, respectively. Percentage erythrocyte lysis was computed as: % lysis=100% (Aneg−Atest)/(Aneg−Apos), where A is absorbance at 710 nm.
Inhibitor selectivity for rat UT-A1 versus UT-B was investigated using an erythrocyte lysis assay of rat UT-B urea transport, which involved measurement of hypotonic lysis (by near-infrared absorbance) of acetamide-loaded erythrocytes following rapid dilution into acetamide-free buffer.

Molecules are shown by their SMILES.

`CCCS(=O)(=O)N1CCCc2ccc(NS(=O)(=O)c3cc(C)c(C)cc3OC)cc21`: the IC50 on rat UT-A1 is 10 µM; on rat UT-B, 12 µM.

In the case of `CCS(=O)(=O)N1CCCc2ccc(NS(=O)(=O)c3cc(C)ccc3OC)cc21`, the IC50 was 20 µM at rat UT-A1 and 5 µM at rat UT-B.

For `CCCS(=O)(=O)N1CCCc2ccc(NS(=O)(=O)c3cc(Cl)ccc3OC)cc21`, the IC50 on rat UT-A1 came out at 2.5 µM; at rat UT-B, 6 µM.

Take `CCS(=O)(=O)N1CCCc2ccc(NS(=O)(=O)c3cc(C)c(C)cc3OC)cc21`: the IC50 on rat UT-A1 is 6 µM; at rat UT-B, 12 µM.

For the molecule `CCc1ccc(OC)c(S(=O)(=O)Nc2ccc3c(c2)N(S(=O)(=O)CC)CCC3)c1`, the IC50 at rat UT-A1 is 6 µM; on rat UT-B, 10 µM.

One may read the IC50 as the concentration that gives 50% inhibition.
